This passage reports IC50 results from US20090099157A1, “TETRAHYDRO-PYRAZOLO-PYRIDINE THIOETHER MODULATORS OF CATHEPSIN S” (priority 2007, published 2009).

Chains of the proteins cited; added tags and fusions are not shown. Residues count along the entry.
UniProt P25774, 115-331: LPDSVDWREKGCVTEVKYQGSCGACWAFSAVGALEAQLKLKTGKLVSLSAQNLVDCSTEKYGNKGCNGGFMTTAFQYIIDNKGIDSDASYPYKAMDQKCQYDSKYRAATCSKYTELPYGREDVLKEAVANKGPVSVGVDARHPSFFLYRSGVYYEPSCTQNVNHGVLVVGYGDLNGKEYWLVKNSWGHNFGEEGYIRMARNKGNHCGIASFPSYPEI

The target in this assay is Recombinant human cathepsin S (CatS) (Homo sapiens, UniProt P25774). In words: biochemical.

Each structure is given as a SMILES string.

Take `CS(=O)(=O)N1CCc2c(c(-c3ccc(C(F)(F)F)c(SCC(=O)N4CCOCC4)c3)nn2CC(O)CN2CCC(c3n[nH]c(=O)[nH]3)CC2)C1` (stereo not drawn) [Example 750, 5-(1-{2-Hydroxy-3-[5-(methylsulfonyl)-3-{3-[(2-morpholin-4-yl-2-oxoethyl)sulfanyl]-4-(trifluoromethyl)phenyl}-4,5,6,7-tetrahydro-1H-pyrazolo[4,3-c]pyridin-1-yl]propyl}piperidin-4-yl)-2,4-dihydro-3H-1,2,4-triazol-3-one]: the IC50 came out at 35 nM. In the case of `CS(=O)(=O)N1CCc2c(c(-c3ccc(C(F)(F)F)c(SCC(=O)NC4CCCC4)c3)nn2CC(O)CN2CCC(N3CCOCC3)CC2)C1` (stereo not drawn) [Example 754, N-Cyclopentyl-2-{[5-{1-[2-hydroxy-3-(4-morpholin-4-ylpiperidin-1-yl)propyl]-5-(methylsulfonyl)-4,5,6,7-tetrahydro-1H-pyrazolo[4,3-c]pyridin-3-yl}-2-(trifluoromethyl)phenyl]sulfanyl}acetamide] it was 510 nM; in that of `CS(=O)(=O)N1CCc2c(c(-c3ccc(C(F)(F)F)c(SCC(=O)N4CC[C@@H](O)C4)c3)nn2CC(O)CN2CCC(c3ccccn3)CC2)C1` (stereo partly drawn) [Example 713, (3R)-1-({[5-{1-[2-Hydroxy-3-(4-pyridin-2-ylpiperidin-1-yl)propyl]-5-(methylsulfonyl)-4,5,6,7-tetrahydro-1H-pyrazolo[4,3-c]pyridin-3-yl}-2-(trifluoromethyl)phenyl]sulfanyl}acetyl)pyrrolidin-3-ol], 4 nM. The same measure for `CC(C)(C)OC(=O)NCC(=O)N1CCc2c(c(-c3ccc(C(F)(F)F)c(SCCN4CCC(F)CC4)c3)nn2CC(O)CN2CCCCC2)C1` (stereo not drawn) [Example 746, 1,1-Dimethylethyl (2-{3-[3-{[2-(4-fluoropiperidin-1-yl)ethyl]sulfanyl}-4-(trifluoromethyl)phenyl]-1-(2-hydroxy-3-piperidin-1-ylpropyl)-1,4,6,7-tetrahydro-5H-pyrazolo[4,3-c]pyridin-5-yl}-2-oxoethyl)carbamate]: 450 nM; for `CC1CCN(CCSc2cc(-c3nn(C[C@@H](O)CN4CCCCCC4)c4c3CN(S(C)(=O)=O)CC4)ccc2C(F)(F)F)CC1` [Example 445, (2S)-1-Azepan-1-yl-3-{3-[3-{[2-(4-methylpiperidin-1-yl)ethyl]sulfanyl}-4-(trifluoromethyl)phenyl]-5-(methylsulfonyl)-4,5,6,7-tetrahydro-1H-pyrazolo[4,3-c]pyridin-1-yl}propan-2-ol]: 280 nM; for `CS(=O)(=O)N1CCc2c(c(-c3ccc(C(F)(F)F)c(SCCN4CC[C@H](F)C4)c3)nn2C[C@@H](O)CN2C=NCCC2)C1` [Example 353, (2S)-1-(5,6-Dihydropyrimidin-1(4H)-yl)-3-{3-[3-({2-[(3S)-3-fluoropyrrolidin-1-yl]ethyl}sulfanyl)-4-(trifluoromethyl)phenyl]-5-(methylsulfonyl)-4,5,6,7-tetrahydro-1H-pyrazolo[4,3-c]pyridin-1-yl}propan-2-ol]: 10100 nM.

For `CS(=O)(=O)N1CCc2c(c(-c3ccc(C(F)(F)F)c(SCCN4CC[C@H](F)C4)c3)nn2C[C@@H](O)CN2CCC(NC(=O)CO)CC2)C1` [Example 658, N-{1-[(2S)-3-{3-[3-({2-[(3S)-3-Fluoropyrrolidin-1-yl]ethyl}sulfanyl)-4-(trifluoromethyl)phenyl]-5-(methylsulfonyl)-4,5,6,7-tetrahydro-1H-pyrazolo[4,3-c]pyridin-1-yl}-2-hydroxypropyl]piperidin-4-yl}-2-hydroxyacetamide], the half-maximal inhibitory concentration (IC50) is 330 nM. The same measure for `COC1CCN(CC(O)Cn2nc(-c3ccc(C(F)(F)F)c(SCC(=O)N4CCCC4)c3)c3c2CCNC3)CC1` (stereo not drawn) [Example 302, 1-[4-(Methyloxy)piperidin-1-yl]-3-(3-{3-[(2-oxo-2-pyrrolidin-1-ylethyl)sulfanyl]-4-(trifluoromethyl)phenyl}-4,5,6,7-tetrahydro-1H-pyrazolo[4,3-c]pyridin-1-yl)propan-2-ol]: 2410 nM; for `CC(=O)N1CCc2c(c(-c3ccc(C(F)(F)F)c(SCC(=O)N4CCOCC4)c3)nn2CC(O)CN2CCC(N3CCCC3)CC2)C1` (stereo not drawn) [Example 572, 1-(5-Acetyl-3-{3-[(2-morpholin-4-yl-2-oxoethyl)sulfanyl]-4-(trifluoromethyl)phenyl}-4,5,6,7-tetrahydro-1H-pyrazolo[4,3-c]pyridin-1-yl)-3-(4-pyrrolidin-1-ylpiperidin-1-yl)propan-2-ol]: 340 nM. In the case of `CS(=O)(=O)N1CCc2c(c(-c3ccc(C(F)(F)F)c(SCCN4CCCC(CO)C4)c3)nn2CC(O)CN2CCC(C(=O)N3CCOCC3)CC2)C1` (stereo not drawn) [Example 863, 1-{3-[3-({2-[3-(Hydroxymethyl)piperidin-1-yl]ethyl}sulfanyl)-4-(trifluoromethyl)phenyl]-5-(methylsulfonyl)-4,5,6,7-tetrahydro-1H-pyrazolo[4,3-c]pyridin-1-yl}-3-[4-(morpholin-4-ylcarbonyl)piperidin-1-yl]propan-2-ol], the half-inhibitory concentration (IC50) turned out to be 370 nM. `O=C(CSc1cc(-c2nn(CC(O)CN3CCCCC3)c3c2CNCC3)ccc1C(F)(F)F)N1CCCC1` (stereo not drawn) [Example 272, 1-(3-{3-[(2-Oxo-2-pyrrolidin-1-ylethyl)sulfanyl]-4-(trifluoromethyl)phenyl}-4,5,6,7-tetrahydro-1H-pyrazolo[4,3-c]pyridin-1-yl)-3-piperidin-1-ylpropan-2-ol]: the 50% inhibitory concentration (IC50) stood at 3580 nM. In the case of `CS(=O)(=O)NC1CCN(CC(O)Cn2nc(-c3ccc(C(F)(F)F)c(SCCN4CCCC(CO)C4)c3)c3c2CCN(S(C)(=O)=O)C3)CC1` (stereo not drawn) [Example 835, N-[1-(2-Hydroxy-3-{3-[3-({2-[3-(hydroxymethyl)piperidin-1-yl]ethyl}sulfanyl)-4-(trifluoromethyl)phenyl]-5-(methylsulfonyl)-4,5,6,7-tetrahydro-1H-pyrazolo[4,3-c]pyridin-1-yl}propyl)piperidin-4-yl]methanesulfonamide] it was 330 nM. On to `CS(=O)(=O)N1CCc2c(c(-c3ccc(C(F)(F)F)c(SCCNC(=O)C4CCCNC4)c3)nn2CC(O)CN2CCC(N3CCCC3=O)CC2)C1` (stereo not drawn) [Example 125, Piperidine-3-carboxylic acid {2-[5-(1-{2-hydroxy-3-[4-(2-oxo-pyrrolidin-1-yl)-piperidin-1-yl]-propyl}-5-methanesulfonyl-4,5,6,7-tetrahydro-1H-pyrazolo[4,3-c]pyridin-3-yl)-2-trifluoromethyl-phenylsulfanyl]-ethyl}-amide], for which the IC50 is 420 nM. The same measure for `CS(=O)(=O)N1CCc2c(c(-c3ccc(C(F)(F)F)c(SCCN4CCCCC4)c3)nn2CCCN2CCC(N3CC(O)CC3=O)CC2)C1` (stereo not drawn) [Example 679, 4-Hydroxy-1-(1-{3-[5-(methylsulfonyl)-3-{3-[(2-piperidin-1-ylethyl)sulfanyl]-4-(trifluoromethyl)phenyl}-4,5,6,7-tetrahydro-1H-pyrazolo[4,3-c]pyridin-1-yl]propyl}piperidin-4-yl)pyrrolidin-2-one]: 240 nM; for `CNC(=O)N1CCc2c(c(-c3ccc(C(F)(F)F)c(SCCN4CCC(F)CC4)c3)nn2C[C@@H](O)CN2CCCCC2)C1` [Example 252, 3-[3-{[2-(4-Fluoropiperidin-1-yl)ethyl]sulfanyl}-4-(trifluoromethyl)phenyl]-1-[(2S)-2-hydroxy-3-piperidin-1-ylpropyl]-N-methyl-1,4,6,7-tetrahydro-5H-pyrazolo[4,3-c]pyridine-5-carboxamide]: 590 nM.
